# Measured affinities in a library of Ab-14 light chain variants

From the AlphaSeq antibody data of Engelhart et al. 2022 (doi:10.1038/s41597-022-01779-4), copy in the FLAb collection.

All variants were tested on one target, the spike HR2 peptide PDVDLGDISGINAS (SARS-CoV-2).

Parent: Ab-14, a human scFv built as VH, a 15-residue (Gly4Ser)3 linker, VL. Only the CDRs of the light chain vary.
VH: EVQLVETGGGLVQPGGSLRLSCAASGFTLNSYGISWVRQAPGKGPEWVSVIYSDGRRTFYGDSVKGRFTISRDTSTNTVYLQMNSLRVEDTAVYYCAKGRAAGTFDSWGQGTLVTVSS
VL: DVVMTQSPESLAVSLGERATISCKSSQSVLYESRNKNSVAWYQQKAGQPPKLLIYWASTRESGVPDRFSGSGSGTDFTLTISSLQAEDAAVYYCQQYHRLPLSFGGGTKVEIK

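The starting antibody came from a phage panning campaign against this peptide. The library (AAYL50) carries one to three amino acid substitutions per variant, with no insertions or deletions. In AlphaSeq, yeast of one mating type display the scFv and yeast of the other type display the target. The frequency of each diploid, read from paired DNA barcodes, reflects how well the two displayed proteins bind. A regression on co-assayed BCL2-family reference pairs converts the normalised counts of each replicate to an apparent Kd. Each pool was mated in three replicate cultures.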

Changes read parent residue, position, new residue, counted from the first residue of the VL shown. Values are log10 of the apparent Kd in nM; lower means stronger binding. The mean shown is taken over the replicates in which the pair was detected. "nd" marks a missing value. The strain was present, yet no cells mated with the target were sequenced in that replicate, which points to weak or no binding. Parent in this assay: reference entry 0.65, copy in this library 1.68. As a blank, each scFv also met three strains without target: over library AAYL50, 18% of these pairings were detected, typically at 4.19 and seldom below 2.99. The control count says in how many pairings with the empty strains this scFv gave a signal, with their mean in brackets.

| changes | log10 Kd (nM) by replicate | log10 Kd (nM), mean | empty controls |
|---|---|---|---|
| S26H/R34I/P101N | nd / 3.87 / 4.86 | 4.36 | 6 of 9 (4.65) |
| Q27A/A57F/R60I | nd / 5.05 / nd | 5.05 | 3 of 9 (3.71) |
| Y31W/L100H/P101A | nd / nd / nd | nd | 0 of 9 |
| K24E/S26E/S62Q | 3.63 / 3.07 / 3.51 | 3.40 | 0 of 9 |
| S58I/E61S/H98T | nd / nd / nd | nd | 0 of 9 |
| S25F/E32I/Q95S | 1.53 / 1.56 / 1.53 | 1.54 | 6 of 9 (4.30) |
| R34W/K36T/A40M | nd / nd / nd | nd | 0 of 9 |
| Y31S/S58K/Q96H | 2.07 / 2.59 / 3.20 | 2.62 | 2 of 9 (4.82) |
| S33V/W56S | 0.53 / 0.57 / 0.44 | 0.51 | 4 of 9 (5.39) |
| E61N/R99W/L102V | nd / nd / nd | nd | 0 of 9 |
| Y97T/H98E/L100G | 7.21 / 4.21 / 5.27 | 5.57 | 7 of 9 (4.51) |
| L30S/W56K/R99T | 0.05 / 0.37 / 0.27 | 0.23 | 0 of 9 |
| K24M/S25F/V39D | nd / 4.85 / nd | 4.85 | 0 of 9 |
| Q27R/R34H/R99M | 0.77 / 0.86 / 0.97 | 0.87 | 0 of 9 |
| R34K/R60T/L102A | 2.53 / 2.40 / 2.39 | 2.44 | 3 of 9 (4.45) |
| S58D/S62K/R99P | 1.27 / 1.19 / 1.40 | 1.29 | 4 of 9 (4.93) |
| Q27Y/V39Q/Y97D | nd / nd / nd | nd | 0 of 9 |
| Q27P/K36M/T59G | nd / nd / 3.65 | 3.65 | 1 of 9 (4.73) |
| L30V/S38R/E61Q | 5.28 / nd / nd | 5.28 | 0 of 9 |
| V39Y/P101W/L102N | nd / nd / nd | nd | 0 of 9 |
| K24E/Y97N/R99I | 3.16 / 2.75 / 1.88 | 2.60 | 1 of 9 (2.87) |
| K24T/H98P | nd / 5.40 / nd | 5.40 | 3 of 9 (4.58) |
| A40C/E61C | nd / 2.22 / 3.44 | 2.83 | 0 of 9 |
| R34Q/S38K/L100F | nd / 2.35 / nd | 2.35 | 1 of 9 (2.53) |
| S28E/L30I/V39N | nd / 3.12 / 5.06 | 4.09 | 2 of 9 (4.06) |
| S26I/K36I/S103D | nd / nd / 1.90 | 1.90 | 0 of 9 |
| R34Y/N35L/H98I | 2.11 / 1.46 / 1.52 | 1.70 | 0 of 9 |
| S28D/E32D/Y97S | 2.55 / 2.04 / 2.06 | 2.22 | 2 of 9 (3.33) |
| N35R/N37E/H98W | 2.61 / 2.05 / 2.10 | 2.25 | 2 of 9 (3.97) |
| N35P/K36F/L100G | 1.17 / 1.36 / 1.30 | 1.27 | 5 of 9 (4.78) |
| S25I/E32N/N35T | -0.51 / -0.12 / -0.40 | -0.34 | 2 of 9 (4.76) |
| Y31D/E32Y/H98A | nd / nd / 3.55 | 3.55 | 0 of 9 |
| Q27E/E32A | 0.18 / 0.41 / 0.41 | 0.34 | 0 of 9 |
| L30P/E32R/S58E | 1.85 / 1.81 / 1.91 | 1.85 | 3 of 9 (4.56) |
| Q27R/N35R/S62H | nd / nd / nd | nd | 3 of 9 (4.33) |
| Q27N/T59M/E61N | 0.84 / 1.20 / 1.06 | 1.03 | 5 of 9 (4.62) |
| T59K/E61W/S62M | 2.20 / 2.45 / 2.70 | 2.45 | 3 of 9 (4.11) |
| A57N/P101Y/L102P | nd / nd / nd | nd | 1 of 9 (2.87) |
| L30R/W56D/L100S | -0.37 / 0.01 / -0.23 | -0.20 | 4 of 9 (4.95) |
| Q27P/A57N/Y97S | nd / nd / nd | nd | 0 of 9 |
| K24W/N37L/H98R | 3.29 / 2.88 / nd | 3.08 | 2 of 9 (3.71) |
| R60D/S103Q | nd / nd / nd | nd | 0 of 9 |
| E61V/S62M/Q95W | 0.60 / 0.82 / 0.58 | 0.66 | 2 of 9 (3.49) |

Picked from the list: the 7 lowest averages where every replicate gave a value.

| changes | log10 Kd (nM) by replicate | log10 Kd (nM), mean | empty controls |
|---|---|---|---|
| S25I/E32N/N35T | -0.51 / -0.12 / -0.40 | -0.34 | 2 of 9 (4.76) |
| L30R/W56D/L100S | -0.37 / 0.01 / -0.23 | -0.20 | 4 of 9 (4.95) |
| L30S/W56K/R99T | 0.05 / 0.37 / 0.27 | 0.23 | 0 of 9 |
| Q27E/E32A | 0.18 / 0.41 / 0.41 | 0.34 | 0 of 9 |
| S33V/W56S | 0.53 / 0.57 / 0.44 | 0.51 | 4 of 9 (5.39) |
| E61V/S62M/Q95W | 0.60 / 0.82 / 0.58 | 0.66 | 2 of 9 (3.49) |
| Q27R/R34H/R99M | 0.77 / 0.86 / 0.97 | 0.87 | 0 of 9 |